Results: patent US5013539A, “Method and composition for antagonism of sodium nitroprusside toxic effects” (dated 1991)

Key:
[1] = test system: Male ICR mice; settings: group B alpha-ketoglutaric acid vs group A control
[2] = test system: sodium nitroprusside-induced lethality; assay: Alpha-ketoglutaric acid pretreatment times against sodium nitroprusside-induced lethality; settings: 2 g alpha-ketoglutaric acid/kg 5, 10, and 15 minutes prior to LD85 dose of sodium nitroprusside; P<0.05
[3] = test system: cyanide-induced lethality; assay: Alpha-ketoglutaric acid administered after potassium cyanide (KCN) administration, lethality; settings: control 80% dead, P<0.05 vs control

O=C(O)CCC(=O)C(=O)O
Potency Ratio (LD50 of KCN, alpha-ketoglutaric acid pretreated over saline control) [1]: five fold increase
antagonism of sodium nitroprusside-induced lethality [2]: significantly protected
Percentage Dead ([3]; alpha-ketoglutaric acid given 15 sec after KCN injection): 10%
Percentage Dead ([3]; alpha-ketoglutaric acid given 25 sec after KCN injection): 0%
Percentage Dead ([3]; alpha-ketoglutaric acid given 55 sec after KCN injection): 10%
